Experimental data: patent US7875621B2, “Substituted 2-alkyl quinazolinone derivatives as PARP inhibitors” (Janssen Pharmaceutica NV, priority 2004, dated 2011)

Sequences of proteins named here, by UniProt entry; tags and fusion partners are left off.
UniProt Q9H2K2, whole entry: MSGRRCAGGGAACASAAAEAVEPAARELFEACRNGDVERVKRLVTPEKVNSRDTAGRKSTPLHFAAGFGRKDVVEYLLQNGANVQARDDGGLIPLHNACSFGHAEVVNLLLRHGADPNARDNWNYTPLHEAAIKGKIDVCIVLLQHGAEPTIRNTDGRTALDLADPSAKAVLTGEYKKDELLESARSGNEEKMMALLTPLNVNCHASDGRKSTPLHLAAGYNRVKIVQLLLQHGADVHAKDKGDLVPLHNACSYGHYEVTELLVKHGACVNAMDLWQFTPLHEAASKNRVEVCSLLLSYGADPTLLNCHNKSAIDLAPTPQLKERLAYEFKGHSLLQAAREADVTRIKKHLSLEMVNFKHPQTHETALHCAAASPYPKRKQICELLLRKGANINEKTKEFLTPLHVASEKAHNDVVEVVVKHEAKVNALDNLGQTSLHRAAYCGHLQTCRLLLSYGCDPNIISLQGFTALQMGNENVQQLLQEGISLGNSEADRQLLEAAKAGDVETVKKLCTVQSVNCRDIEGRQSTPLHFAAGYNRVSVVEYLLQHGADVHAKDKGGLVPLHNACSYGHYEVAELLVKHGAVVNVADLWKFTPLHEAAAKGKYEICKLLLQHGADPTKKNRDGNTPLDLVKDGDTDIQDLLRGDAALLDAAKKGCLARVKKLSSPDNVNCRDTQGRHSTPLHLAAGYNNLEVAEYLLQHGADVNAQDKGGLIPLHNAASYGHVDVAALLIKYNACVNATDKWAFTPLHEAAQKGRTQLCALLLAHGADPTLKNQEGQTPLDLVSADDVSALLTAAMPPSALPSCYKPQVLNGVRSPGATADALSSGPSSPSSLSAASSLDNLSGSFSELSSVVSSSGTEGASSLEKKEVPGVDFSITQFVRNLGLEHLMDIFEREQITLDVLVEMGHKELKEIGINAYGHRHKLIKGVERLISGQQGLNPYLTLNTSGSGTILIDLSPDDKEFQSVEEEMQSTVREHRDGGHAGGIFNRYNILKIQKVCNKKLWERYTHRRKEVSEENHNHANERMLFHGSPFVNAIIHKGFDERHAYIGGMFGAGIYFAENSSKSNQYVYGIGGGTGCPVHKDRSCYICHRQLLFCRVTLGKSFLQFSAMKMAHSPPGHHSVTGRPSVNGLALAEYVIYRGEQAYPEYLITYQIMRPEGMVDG
UniProt P09874, whole entry: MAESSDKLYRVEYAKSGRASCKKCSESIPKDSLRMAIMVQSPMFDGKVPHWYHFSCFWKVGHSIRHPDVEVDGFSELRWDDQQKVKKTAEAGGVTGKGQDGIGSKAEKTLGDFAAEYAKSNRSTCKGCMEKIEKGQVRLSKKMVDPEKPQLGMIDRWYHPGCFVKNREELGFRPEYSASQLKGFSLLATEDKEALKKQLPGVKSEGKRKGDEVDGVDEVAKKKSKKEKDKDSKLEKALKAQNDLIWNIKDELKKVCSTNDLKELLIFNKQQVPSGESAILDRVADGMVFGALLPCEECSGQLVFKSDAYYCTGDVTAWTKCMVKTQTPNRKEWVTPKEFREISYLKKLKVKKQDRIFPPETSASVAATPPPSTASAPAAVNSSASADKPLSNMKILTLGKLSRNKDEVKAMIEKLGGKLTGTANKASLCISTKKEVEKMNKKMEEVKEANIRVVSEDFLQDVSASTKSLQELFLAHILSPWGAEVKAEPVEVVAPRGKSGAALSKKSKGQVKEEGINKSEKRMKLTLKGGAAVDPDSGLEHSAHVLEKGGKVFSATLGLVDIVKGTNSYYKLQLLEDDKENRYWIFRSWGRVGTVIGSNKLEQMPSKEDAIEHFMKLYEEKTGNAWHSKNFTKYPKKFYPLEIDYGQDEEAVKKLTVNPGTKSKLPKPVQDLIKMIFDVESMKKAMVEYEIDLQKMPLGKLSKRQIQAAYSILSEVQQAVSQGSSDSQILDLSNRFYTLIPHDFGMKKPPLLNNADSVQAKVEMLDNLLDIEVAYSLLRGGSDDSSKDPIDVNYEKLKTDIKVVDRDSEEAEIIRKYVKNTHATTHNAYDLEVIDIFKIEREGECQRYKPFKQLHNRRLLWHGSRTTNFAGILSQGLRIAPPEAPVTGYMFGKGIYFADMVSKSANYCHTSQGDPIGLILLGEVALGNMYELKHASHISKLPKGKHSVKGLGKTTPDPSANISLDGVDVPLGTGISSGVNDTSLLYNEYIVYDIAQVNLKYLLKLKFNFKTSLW

Tests used:
TANK-2 enzyme = TANK-2 enzyme (Homo sapiens, UniProt Q9H2K2); assay: In vitro scintillation proximity assay (SPA) for TANK-2 inhibitory activity; conditions: auto-poly(ADP-ribosyl)ation, [3H]-NAD+, 96- or 384-well Ni Flash plates
PARP-1 enzyme [1] = target: T1, PARP-1 enzyme (Homo sapiens, UniProt P09874); assay: In vitro filtration assay for PARP-1 inhibitory activity; conditions: [32P]-NAD, nicked DNA, histones
PARP-1 enzyme [2] = target: T1, PARP-1 enzyme; assay: In vitro scintillation proximity assay (SPA) for PARP-1 inhibitory activity; conditions: [3H]-NAD+, nicked DNA, biotinylated histones

## O=c1[nH]c(CCN2CCC(n3c(=O)[nH]c4ccccc43)CC2)nc2ccccc12
TANK-2 enzyme
  in vitro SPA TANK-2 pIC50: 5.674
PARP-1 enzyme [1]
  in vitro filter assay PARP-1 pIC50: 5
PARP-1 enzyme [2]
  in vitro SPA assay PARP-1 pIC50: 6.376

This is a selection: effects in other tests are not listed, and their absence says nothing.
